# Values of other authors as cited in US20140171372A1, “Treatments for Alzheimer's disease” (priority 2012, published 2014).
# Tested on: patients
substance,measurement,value
Bapineuzumab,outcome of clinical trial in AD,failure
